The values below come from patent EP1731520A1.

Chains of the proteins cited; added tags and fusions are not shown.
UniProt P30542, whole entry: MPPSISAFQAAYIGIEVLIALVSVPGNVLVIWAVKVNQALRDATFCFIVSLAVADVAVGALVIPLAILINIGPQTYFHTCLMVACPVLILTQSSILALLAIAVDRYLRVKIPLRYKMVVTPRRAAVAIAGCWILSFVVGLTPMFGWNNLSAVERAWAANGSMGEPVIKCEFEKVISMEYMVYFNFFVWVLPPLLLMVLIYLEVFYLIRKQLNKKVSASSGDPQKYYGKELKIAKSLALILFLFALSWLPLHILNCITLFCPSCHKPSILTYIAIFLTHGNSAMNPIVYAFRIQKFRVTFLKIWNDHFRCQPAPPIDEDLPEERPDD
UniProt P0DMS8, whole entry: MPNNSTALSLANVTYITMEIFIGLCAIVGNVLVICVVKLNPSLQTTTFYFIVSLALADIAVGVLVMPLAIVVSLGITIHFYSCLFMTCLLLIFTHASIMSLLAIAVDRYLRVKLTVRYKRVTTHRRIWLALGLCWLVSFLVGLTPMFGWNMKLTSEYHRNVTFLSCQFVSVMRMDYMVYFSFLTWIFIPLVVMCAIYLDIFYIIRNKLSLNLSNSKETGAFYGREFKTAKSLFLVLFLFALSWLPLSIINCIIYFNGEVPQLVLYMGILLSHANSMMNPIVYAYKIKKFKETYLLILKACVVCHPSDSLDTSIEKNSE

The target of one experiment is human A2a receptor. Conditions: read-out: Reported Ki; agonist; cited from earlier work.
The target of experiment [1] is T1, human A1 receptor subtype (Homo sapiens, UniProt P30542).
The target of experiment [2] is human A3 receptor subtype (Homo sapiens, UniProt P0DMS8). Briefly: Adenosine 3 receptor competition radioligand binding, [125I] AB-MECA, HEK293 membranes. The following applies: for Ki: read-out: Binding Ki (nM) A3, Table 13.
Experiment [3] concerns the target T2, human A2b receptor subtype (Homo sapiens, UniProt P29275).
T2 sequence (P29275 1-332): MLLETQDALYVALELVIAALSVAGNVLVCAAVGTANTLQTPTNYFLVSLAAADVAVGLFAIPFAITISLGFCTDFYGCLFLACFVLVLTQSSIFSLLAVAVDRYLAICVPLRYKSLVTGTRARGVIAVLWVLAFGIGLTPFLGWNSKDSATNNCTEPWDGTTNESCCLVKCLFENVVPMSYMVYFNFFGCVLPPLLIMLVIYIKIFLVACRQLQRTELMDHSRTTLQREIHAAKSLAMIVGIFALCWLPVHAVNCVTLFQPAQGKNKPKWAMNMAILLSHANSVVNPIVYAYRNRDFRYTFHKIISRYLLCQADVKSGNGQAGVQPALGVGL
Briefly: Adenosine 2b receptor subtype competition radioligand binding, [3H] DPCPX, HEK293 membranes. Conditions: read-out: Binding Ki (nM) A2b; Table 13.

Experiment [4] concerns the target human adenosine A1 receptor (Homo sapiens, UniProt P30542). The following applies: read-out: Al Yeast IC50.
The target in experiment [5] is T1, human A1 receptor subtype. Briefly: biochemical.
Setting [6] is: read-out: Binding Ki (nM) A1, Table 13, Profile of Selective Adenosine Antagonists.

Where two headings read alike, the source gives them in different places.

`CC(Cc1ccccc1)Nc1ncnc2c1ncn2[C@@H]1O[C@H](CO)[C@@H](O)[C@H]1O` (single isomer, unassigned; (-)) [PIA]: at human A2a receptor, the Ki (in general, a dissociation constant, usually derived from enzyme kinetics or from competition with a known ligand) was 100 to 125 nM.
Take `Cc1[nH]c2nc(-c3ccccc3)nc(N[C@@H]3CC[C@H](O)C3)c2c1C` (racemic) [Compound 1308]: the Ki in experiment [1] (setting [6]) is 180 nM; in experiment [2], 1 nM; in experiment [3] it was 670 nM.
In the case of `Cc1c(C)n(C(C)c2ccccc2)c2nc(-c3ccoc3)nc(N[C@H]3CC[C@H](O)CC3)c12` (some centres unmarked) [Compound 803], in experiment [4] (Table 8, Effect of Pyrrole Ring Substituent), the 50% inhibitory concentration (IC50) (usually the concentration that inhibits the measured activity by half) was above 10000 nM. For the same compound, the Ki in experiment [1] (read-out: Al Binding Ki, Table 8, Effect of Pyrrole Ring Substituent) came to 2210 nM.
As for `Cc1[nH]c2nc(-c3ccco3)nc(N[C@H]3CC[C@H](O)CC3)c2c1C` [Compound 702], the inhibition constant Ki in experiment [1] (read-out: Al Binding Ki, Table 7, Effect of C2-Substituent) came out at 198 nM.
The compound `CC(=O)NCCNc1nc(-c2ccccc2)nc2[nH]c(C)c(C)c12` [Compound 1002] had an inhibition constant Ki in experiment [1] (Table 5, membranes from yeast cells transformed with human A1 receptor subtype) of 9.8 nM.
In the case of `Cc1[nH]c2nc(-c3ccccc3)nc(N[C@@H]3CC[C@@H](O)C3)c2c1C` (racemic) [Compound 1307], the Ki in experiment [2] was found to be 3.1 nM; in experiment [3] it was 1140 nM.
Regarding `CC(=O)NC1CCCN(c2nc(-c3ccccc3)nc3[nH]c(C)c(C)c23)C1` (centres unmarked) [Compound 1309], the “Ki-A3 (selectivity versus other three subtypes)” value in experiment [2] (Table 17, Adenosine A3 Receptor Selective Compounds) was “* (at least 10 times more selective than other three subtypes.)”.
Turning to `O[C@H]1CC[C@H](Nc2nc(-c3ccccc3)nc3[nH]ccc23)CC1` [Compound 1318], affinity in experiment [5] was put at a Ki of 3.7 ± 0.5 nM.
For `CC(=O)NCCNc1nc(-c2ccccc2)nc2[nH]c(C)c(C)c12` [Compound 1300], in experiment [1] (setting [6]), the Ki fell in the range of 9.8 to 25.1 nM.
As for `Cc1[nH]c2nc(-c3ccccc3)nc(NCCC(=O)O)c2c1C` [Compound 1204], the 50% inhibitory concentration (IC50) in experiment [4] (Table 12, "Retro-Amide" Analogues) is above 10000 nM.
